Data as given in paper doi:10.1101/2025.03.19.644003.

Protein sequences, listed by entry. Tags and fused reporters are not part of them. Residues count along the entry.
UniProt Q9UHI6, 41-268: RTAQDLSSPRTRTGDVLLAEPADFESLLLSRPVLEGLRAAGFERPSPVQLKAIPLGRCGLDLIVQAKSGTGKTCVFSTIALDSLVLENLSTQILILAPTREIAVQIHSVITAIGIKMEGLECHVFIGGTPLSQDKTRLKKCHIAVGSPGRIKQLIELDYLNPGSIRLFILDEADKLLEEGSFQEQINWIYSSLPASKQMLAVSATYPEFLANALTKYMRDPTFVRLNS
UniProt P40337, whole entry: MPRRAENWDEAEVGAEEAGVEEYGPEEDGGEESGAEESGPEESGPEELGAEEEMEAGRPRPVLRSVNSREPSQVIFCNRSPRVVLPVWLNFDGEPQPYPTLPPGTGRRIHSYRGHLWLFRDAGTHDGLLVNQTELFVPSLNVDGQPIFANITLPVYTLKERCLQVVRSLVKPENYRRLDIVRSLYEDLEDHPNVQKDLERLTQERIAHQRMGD
UniProt Q15369, whole entry: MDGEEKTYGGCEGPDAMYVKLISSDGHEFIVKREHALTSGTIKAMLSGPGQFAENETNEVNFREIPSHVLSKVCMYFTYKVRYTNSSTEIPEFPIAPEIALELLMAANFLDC

Biological target: 6HIS-HiBiT-GEMIN3_(aa41-268) (human) (UniProt Q9UHI6)

In the case of “Untagged VHL/EloB/EloC (VBC) (from UniProt P40337;Q15370;Q15369) (complex)”, the Dmax of cellular GEMIN3 degradation (HiBiT-GEMIN3 HEK293T) with dGEM3 is reported as 81%.
